Measured values published in ChEMBL document CHEMBL5584351.
Activity calls are given as the source filed them. The rule behind the calls is not given here.

Amino acid sequences for entries named in this document (tags omitted). A change or cut given only in a name is not applied to a line headed by its entry.
UniProt P41233: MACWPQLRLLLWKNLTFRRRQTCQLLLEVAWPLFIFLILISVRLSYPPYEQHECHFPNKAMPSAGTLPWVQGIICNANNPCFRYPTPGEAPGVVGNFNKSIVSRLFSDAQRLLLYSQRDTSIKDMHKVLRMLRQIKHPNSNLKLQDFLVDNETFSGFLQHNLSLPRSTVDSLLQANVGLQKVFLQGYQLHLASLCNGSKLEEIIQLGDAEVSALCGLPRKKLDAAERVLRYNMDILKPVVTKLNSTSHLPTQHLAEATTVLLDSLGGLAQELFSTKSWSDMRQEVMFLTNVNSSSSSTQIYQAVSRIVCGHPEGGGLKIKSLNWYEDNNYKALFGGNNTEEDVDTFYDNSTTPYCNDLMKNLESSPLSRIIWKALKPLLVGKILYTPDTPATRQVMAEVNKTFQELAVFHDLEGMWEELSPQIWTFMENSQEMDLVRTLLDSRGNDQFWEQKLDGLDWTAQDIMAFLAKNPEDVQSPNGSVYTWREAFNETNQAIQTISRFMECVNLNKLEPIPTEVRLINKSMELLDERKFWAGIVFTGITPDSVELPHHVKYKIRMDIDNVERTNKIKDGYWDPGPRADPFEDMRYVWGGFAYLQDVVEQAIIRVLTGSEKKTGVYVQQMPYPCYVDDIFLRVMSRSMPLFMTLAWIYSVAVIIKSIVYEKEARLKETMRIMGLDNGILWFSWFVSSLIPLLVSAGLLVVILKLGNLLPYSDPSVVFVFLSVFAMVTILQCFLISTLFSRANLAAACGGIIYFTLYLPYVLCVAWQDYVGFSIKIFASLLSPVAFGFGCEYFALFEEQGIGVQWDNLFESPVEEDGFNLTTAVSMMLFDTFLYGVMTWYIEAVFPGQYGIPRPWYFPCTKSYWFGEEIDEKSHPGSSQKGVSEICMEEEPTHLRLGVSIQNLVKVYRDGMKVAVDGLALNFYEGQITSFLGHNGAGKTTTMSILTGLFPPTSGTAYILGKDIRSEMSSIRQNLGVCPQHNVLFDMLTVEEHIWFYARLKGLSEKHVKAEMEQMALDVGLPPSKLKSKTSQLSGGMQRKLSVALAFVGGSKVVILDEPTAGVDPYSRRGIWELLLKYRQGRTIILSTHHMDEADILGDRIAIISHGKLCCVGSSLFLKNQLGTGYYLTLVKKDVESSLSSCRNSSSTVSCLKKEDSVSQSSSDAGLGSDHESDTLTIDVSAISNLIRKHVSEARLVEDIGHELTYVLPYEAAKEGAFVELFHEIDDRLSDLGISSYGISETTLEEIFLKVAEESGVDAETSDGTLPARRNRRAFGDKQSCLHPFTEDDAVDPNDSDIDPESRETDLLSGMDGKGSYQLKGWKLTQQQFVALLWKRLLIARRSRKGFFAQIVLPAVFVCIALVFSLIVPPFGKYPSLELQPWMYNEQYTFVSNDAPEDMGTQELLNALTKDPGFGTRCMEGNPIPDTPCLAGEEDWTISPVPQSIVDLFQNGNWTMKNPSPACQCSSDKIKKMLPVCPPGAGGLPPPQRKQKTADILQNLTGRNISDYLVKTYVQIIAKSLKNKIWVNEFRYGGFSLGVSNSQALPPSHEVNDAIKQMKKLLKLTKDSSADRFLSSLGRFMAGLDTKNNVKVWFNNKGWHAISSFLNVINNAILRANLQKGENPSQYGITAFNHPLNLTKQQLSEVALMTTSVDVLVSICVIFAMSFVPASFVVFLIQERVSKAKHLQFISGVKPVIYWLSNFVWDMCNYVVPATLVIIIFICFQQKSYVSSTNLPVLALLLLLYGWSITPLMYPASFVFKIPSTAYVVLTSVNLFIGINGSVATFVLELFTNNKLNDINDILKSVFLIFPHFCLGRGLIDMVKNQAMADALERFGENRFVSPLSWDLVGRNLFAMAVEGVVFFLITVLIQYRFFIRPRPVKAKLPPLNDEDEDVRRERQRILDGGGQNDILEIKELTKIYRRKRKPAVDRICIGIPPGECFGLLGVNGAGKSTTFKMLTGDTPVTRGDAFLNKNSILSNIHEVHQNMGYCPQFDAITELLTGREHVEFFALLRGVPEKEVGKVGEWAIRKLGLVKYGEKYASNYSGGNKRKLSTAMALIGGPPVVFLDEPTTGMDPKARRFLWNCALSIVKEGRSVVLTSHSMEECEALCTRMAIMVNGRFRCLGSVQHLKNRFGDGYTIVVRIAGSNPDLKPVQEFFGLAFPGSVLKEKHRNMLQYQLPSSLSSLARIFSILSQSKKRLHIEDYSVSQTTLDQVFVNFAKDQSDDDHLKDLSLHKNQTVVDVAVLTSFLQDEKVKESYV

Assays:
[1] = biological target: Phospholipid-transporting ATPase ABCA1 (Mus musculus) (UniProt P41233); experiment: Activation of ABCA1 in mouse J774.2 cells assessed as increase in fluorescent-tagged cholesterol efflux at 10 uM incubated for 24 hrs in presence of ABCA1 inhibitor probucol by BODIPY based fluorescence analysis; type: cell-based
[2] = biological target: Phospholipid-transporting ATPase ABCA1 (Mus musculus) (UniProt P41233); experiment: Activation of ABCA1 in mouse J774.2 cells assessed as increase in fluorescent-tagged cholesterol efflux incubated for 24 hrs by BODIPY based fluorescence analysis; type: cell-based; settings: filed as activator

## CCOC(=O)c1cc(Cl)cc(NC(=O)c2sc(Cl)cc2S(=O)(=O)N(C)c2ccc(OCC)c(OC)c2)c1
[1]
  Activity: inactive
[2]
  Activity: Dose-Dependent Effect
